Assay results reported in patent US20160368961A1 (GLYTECH, published 2016).

Amino acid sequences for entries named in this document (tags omitted). A change or cut given only in a name is not applied to a line headed by its entry.
UniProt P30874: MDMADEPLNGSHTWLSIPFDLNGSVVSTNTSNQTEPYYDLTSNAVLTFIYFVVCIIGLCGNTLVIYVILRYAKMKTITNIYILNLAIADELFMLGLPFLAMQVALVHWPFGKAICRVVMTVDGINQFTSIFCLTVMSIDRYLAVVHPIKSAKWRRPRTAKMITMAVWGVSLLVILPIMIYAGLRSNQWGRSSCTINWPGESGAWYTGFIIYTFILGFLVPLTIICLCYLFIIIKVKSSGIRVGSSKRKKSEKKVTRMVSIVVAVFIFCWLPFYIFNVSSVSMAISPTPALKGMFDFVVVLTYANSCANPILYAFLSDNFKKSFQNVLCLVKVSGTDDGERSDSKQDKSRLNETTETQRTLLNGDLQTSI
UniProt P32745: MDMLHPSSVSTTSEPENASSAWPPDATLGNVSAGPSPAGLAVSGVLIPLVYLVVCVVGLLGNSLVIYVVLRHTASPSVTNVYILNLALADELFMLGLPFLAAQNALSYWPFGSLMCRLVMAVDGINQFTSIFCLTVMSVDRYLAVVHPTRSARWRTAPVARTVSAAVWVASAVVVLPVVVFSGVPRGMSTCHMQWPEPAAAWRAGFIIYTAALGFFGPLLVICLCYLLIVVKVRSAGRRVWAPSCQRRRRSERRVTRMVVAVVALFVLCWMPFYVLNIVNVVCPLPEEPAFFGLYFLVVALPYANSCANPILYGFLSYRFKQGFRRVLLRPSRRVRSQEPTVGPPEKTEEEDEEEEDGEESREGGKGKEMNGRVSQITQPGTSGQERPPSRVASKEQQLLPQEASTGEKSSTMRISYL
UniProt P35346: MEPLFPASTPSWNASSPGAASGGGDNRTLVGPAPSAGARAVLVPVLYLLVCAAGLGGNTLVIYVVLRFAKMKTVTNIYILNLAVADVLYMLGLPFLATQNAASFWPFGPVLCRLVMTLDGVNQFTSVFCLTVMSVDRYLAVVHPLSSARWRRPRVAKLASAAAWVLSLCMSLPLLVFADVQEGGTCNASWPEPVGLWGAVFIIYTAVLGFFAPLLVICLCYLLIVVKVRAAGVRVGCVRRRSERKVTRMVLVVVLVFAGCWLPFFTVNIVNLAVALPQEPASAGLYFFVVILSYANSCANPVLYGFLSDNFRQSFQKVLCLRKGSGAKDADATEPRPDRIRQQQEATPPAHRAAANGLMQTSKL

B1: N5C(disialo).A9C(disialo)-SRIF28 (peptide)
peptide: SANSCPAMCPRERKAGCKNFFWKTFTSC
modifications: disialo sugar chain attached Cys at positions 5 and 9; disulfide bond Cys17-Cys28
B2: N19C(disialo)-SRIF28 (peptide)
peptide: SANSNPAMAPRERKAGCKCFFWKTFTSC
modifications: disialo sugar chain attached Cys at position 19; disulfide bond Cys17-Cys28
B3: S1C(disialo).R13C(disialo)-SRIF28 (peptide)
peptide: CANSNPAMAPRECKAGCKNFFWKTFTSC
modifications: disialo sugar chain attached Cys at positions 1 and 13; disulfide bond Cys17-Cys28
B4: 30C(disialo)-SRIF28 (peptide)
peptide: SANSNPAMAPRERKAGCKNFFWKTFTSCTC
modifications: -W-disialo sugar chain attached Cys added after Cys28 (glycosylated Cys at position 30); disulfide bond Cys17-Cys28
notes: The text calls residue 29 'W, any amino acid'
B5: C(disialo)-SRIF14 (peptide)
peptide: CAGCKNFFWKTFTSC
modifications: disialo sugar chain attached Cys added at the N-terminal side of SRIF14; disulfide bond Cys17-Cys28 (SRIF28 numbering)
B6: C(disialo)-C12 linker-SRIF14 (peptide)
peptide: CAGCKNFFWKTFTSC
modifications: disialo sugar chain attached Cys at the N-terminus joined to Ala15 of SRIF14 through a C12 linker (12-aminododecanoic acid, -NH-(CH2)11-CO-); disulfide bond Cys17-Cys28 (SRIF28 numbering)
notes: Contains a non-amino-acid linker inside the chain

How the values were obtained:
[1] = molecular target: T1, Somatostatin receptor SSTR2 (human recombinant, CHO-K1 cells) (human, UniProt P30874 1-369); experiment: competitive radioligand binding ([125I]Tyr11-SRIF14), human SSTR2 CHO-K1 membranes
T1 construct: whole, on cells; Used as a receptor membrane sample from recombinant cells

[2] = molecular target: T2, Somatostatin receptor SSTR3 (human recombinant, CHO-K1 cells) (human, UniProt P32745 1-418); experiment: competitive radioligand binding ([125I]Tyr11-SRIF14), human SSTR3 CHO-K1 membranes
T2 construct: whole, on cells; Used as a receptor membrane sample from recombinant cells

[3] = molecular target: T3, Somatostatin receptor SSTR5 (human recombinant, Chem-1 cells) (human, UniProt P35346 1-364); experiment: competitive radioligand binding ([125I]Tyr11-SRIF14), human SSTR5 Chem-1 membranes
T3 construct: whole, on cells; Used as a receptor membrane sample from recombinant cells

Binder | Ki [1] [nM] | IC50 [1] [nM] | IC50 [3] [nM] | also measured
B1 | 0.424 | – | – | –
B2 | – | – | – | Ki [2]: 0.503 nM
B3 | 3.33 | – | – | –
B4 | – | 0.513 | 1.36 | –
B5 | – | 0.336 | – | IC50 [2]: 4.62 nM
B6 | – | – | 2.29 | –
